Experimental data as given in patent publication US7572252B1 (priority 1995, dated 2009).
Some compounds may have been tested in ways that are not shown here. Marks after values point to notes of the source that are not given here.

Key:
[1] = Transdermal electrotransport fentanyl delivery at three constant DC current densities (Example 2); conditions: for average transdermal fentanyl rate: 5 cm^2, 24 h
[2] = Transdermal electrotransport fentanyl delivery with pulsed current at 1, 10 and 625 Hz (Example 3, Table 1); conditions: 31% duty cycle; for Rate of Fentanyl Delivery After Bolus Treatment: after 30 min DC bolus at 0.1 mA/cm^2; for fentanyl flux: 2 cm^2
[3] = Transdermal electrotransport fentanyl delivery, initial high current density boluses vs baseline current (Example 1)

CCC(=O)N(c1ccccc1)C1CCN(CCc2ccccc2)CC1
average transdermal fentanyl rate ([1]; 10 μA/cm^2 constant DC): 19 µg/h | average transdermal fentanyl rate ([1]; 20 μA/cm^2 constant DC): 73 µg/h | average transdermal fentanyl rate ([1]; 40 μA/cm^2 constant DC): 173 µg/h | increase in drug rate ([1]; current increased four-fold from 50 to 200 μA): almost ten-fold increase | Rate of Fentanyl Delivery Without Bolus Treatment ([2]; 1 Hz, pulse width 320 msec): 48** μg/hr. | Rate of Fentanyl Delivery After Bolus Treatment ([2]; 1 Hz, pulse width 320 msec): 48** μg/hr. | Rate of Fentanyl Delivery Without Bolus Treatment ([2]; 10 Hz, pulse width 31 msec): 52** μg/hr. | Rate of Fentanyl Delivery After Bolus Treatment ([2]; 10 Hz, pulse width 31 msec): 52** μg/hr. | difference in fentanyl flux between 1 and 10 Hz ([2]; 200 μA pulse): No statistically significant difference | Rate of Fentanyl Delivery Without Bolus Treatment ([2]; 625 Hz, pulse width 0.5 msec): 7 µg/h | Rate of Fentanyl Delivery After Bolus Treatment ([2]; 625 Hz, pulse width 0.5 msec): 34 µg/h | fentanyl flux ([2]; pulsing frequencies 1 and 10 Hz, 200 μA pulse): increased fentanyl flux | fentanyl flux ([2]; square-wave frequency 625 Hz, 200 μA pulse): minimal fentanyl flux | mean transdermal fentanyl rate ([3]; four 260 μA/cm2 2.5 min boluses in first hour, then 20 μA/cm2 to 24 h, six volunteers): 113 µg/h | mean transdermal fentanyl rate ([3]; only 20 μA/cm2 baseline current for 24 h, twelve volunteers): 57 µg/h
